{"source": "patent US6610883B1", "about": "“Compounds having selective activity for retinoid X receptors, and means for modulation of processes mediated by retinoid X receptors” (Ligand Pharmaceuticals, Inc., priority 1992, dated 2003)", "key": {"RXRβ/VDR": {"target": "T1, RXRβ/VDR (UniProt P11473+P28704)", "T1 construct": "expressed in transfected cells; host or cells: CV-1", "T1 sequence (P28704 1-520)": "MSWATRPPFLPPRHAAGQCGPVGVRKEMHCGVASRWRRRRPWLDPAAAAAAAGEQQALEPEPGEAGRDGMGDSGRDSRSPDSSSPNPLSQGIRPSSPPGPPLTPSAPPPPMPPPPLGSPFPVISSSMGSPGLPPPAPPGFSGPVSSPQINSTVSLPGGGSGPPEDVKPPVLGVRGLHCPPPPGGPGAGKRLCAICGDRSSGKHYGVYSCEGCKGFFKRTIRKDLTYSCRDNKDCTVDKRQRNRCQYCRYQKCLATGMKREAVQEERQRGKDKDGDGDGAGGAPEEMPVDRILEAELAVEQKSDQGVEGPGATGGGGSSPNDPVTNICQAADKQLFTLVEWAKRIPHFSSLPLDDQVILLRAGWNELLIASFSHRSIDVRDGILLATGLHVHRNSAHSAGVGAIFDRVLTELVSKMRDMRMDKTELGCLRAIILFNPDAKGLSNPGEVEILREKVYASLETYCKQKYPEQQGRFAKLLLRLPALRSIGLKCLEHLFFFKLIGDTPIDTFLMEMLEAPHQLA", "T1 sequence (P11473 1-427)": "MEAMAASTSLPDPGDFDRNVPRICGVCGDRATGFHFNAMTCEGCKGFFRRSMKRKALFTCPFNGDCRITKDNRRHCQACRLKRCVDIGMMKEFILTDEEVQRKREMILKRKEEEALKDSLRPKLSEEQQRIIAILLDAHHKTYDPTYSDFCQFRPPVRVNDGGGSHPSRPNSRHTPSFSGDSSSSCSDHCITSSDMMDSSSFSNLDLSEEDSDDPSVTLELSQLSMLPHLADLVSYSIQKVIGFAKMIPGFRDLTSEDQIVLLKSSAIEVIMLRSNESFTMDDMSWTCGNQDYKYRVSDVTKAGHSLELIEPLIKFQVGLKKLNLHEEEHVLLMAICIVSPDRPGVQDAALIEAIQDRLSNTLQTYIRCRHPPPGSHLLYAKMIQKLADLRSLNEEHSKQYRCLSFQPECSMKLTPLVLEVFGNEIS", "assay": "Co-transfection of RXRβ and VD receptors in CV-1 cells", "type": "cell-based"}, "[1]": {"tested_on": "transglutaminase activity", "assay": "cells", "settings": "read-out: Concentration inhibiting 50% of the transglutaminase enzyme activity"}}}
{"smiles": "Cc1cc2c(cc1C(=O)c1ccc(C(=O)O)cc1)C(C)(C)CCC2(C)C", "note": "[3-methyl-TTNCB, 4-[(3,5,5,8,8-pentamethyl-5,6,7,8-tetrahydro-2-naphthyl)carbonyl]benzoic acid]", "values": [{"measurement": "Normalized Response (%)", "setting": "RXRβ/VDR", "value": 13, "unit": "%"}, {"measurement": "IC50", "setting": "[1]", "value": 100, "unit": "nM"}]}
